Test results: PubChem BioAssay AID602141 (Sanford-Burnham Center for Chemical Genomics, 2011)
The entries are a selection whose mix differs from that of the whole data set. Calls of active or inactive are those of the source.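 The calls were made as follows: active = corrected activity change at or below -50% at 5 µM; inactive = the rest.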

Assay: cytotoxicity in KKLEB CF airway cells, primary screen, cytotoxicity control for CF NF-kB inhibitor project, cell-based, uHTS, fluorescence assay plates (AID 602141)
Details: KKLEB CF airway cells viability, ATPlite luminescence, overnight; at 5 µM; stronger effect = lower value; cells stimulated with P. aeruginosa culture filtrate

| SMILES | activity change (cytotoxicity) |
| --- | --- |
| c1nnnn1CCn1cnnn1 | inactive: -12.2% |
| O=P(Nc1nccs1)(c1ccccc1)c1ccccc1 | inactive: 1% |
| CC(C)C(=O)NC(Sc1ccccc1)C(Cl)(Cl)Cl (configuration not stated) | inactive: -7.6% |
| Nc1ccc([As](=O)(O)c2ccc([N+](=O)[O-])cc2)cc1 | inactive: -3.8% |
| C(Cc1nn[nH]n1)Cc1nn[nH]n1 | inactive: 1.6% |
| O=C(OC1CN2CCC1CC2)c1cccc(Cl)c1 (configuration not stated) | inactive: 2.9% |
| CC(=O)NC(SC(=S)N(C)C)C(Cl)(Cl)Cl (configuration not stated) | inactive: -13.2% |
| O=[N+]([O-])c1ncn(CCn2cnc([N+](=O)[O-])n2)n1 | inactive: 3% |
| O=[N+]([O-])c1ccc(O)c(/C=N/Nc2ccc([N+](=O)[O-])cc2[N+](=O)[O-])c1 | active: -63.7% |
| O=[As](O)(c1ccccc1)c1ccc(O)cc1 | inactive: -3.8% |
| C[C@H]1OP(=O)(Oc2ccccc2)[C@H](O)[C@H](O)[C@H]1N=[N+]=[N-] (some centres not stated) | inactive: 9.9% |
| O=P(Nc1nc2ccccc2s1)(c1ccccc1)c1ccccc1 | inactive: -10.3% |
| Nc1ccc(CCCCOc2ccccc2)cc1 | inactive: -0.3% |
| COc1ccc(N)c([N+](=O)[O-])c1[N+](=O)[O-] | inactive: 9.6% |
| CN(C)C1(CNC(=O)c2ccc(Cl)c(S(N)(=O)=O)c2)CCCCC1 | inactive: -0.7% |
| O=P(Nc1ccccn1)(c1ccc(Br)cc1)c1ccc(Br)cc1 | inactive: -2% |
| CN(C)C(=O)Oc1noc2ccccc12 | inactive: 7.2% |
| O=c1c2cc([N+](=O)[O-])ccc2[nH]c2c([N+](=O)[O-])cc([N+](=O)[O-])cc12 | inactive: -34.4% |
| Cc1ccccc1OP(=O)(Nc1ccccn1)Oc1ccccc1C | inactive: -12.6% |
| CC(NC(=O)COC(=O)C(O)(c1ccccc1)c1ccccc1)c1ccccc1 (configuration not stated) | inactive: -2.3% |
| CC(=O)NC(SC(=S)N(CC(C)C)CC(C)C)C(Cl)(Cl)Cl (configuration not stated) | inactive: -4% |
| Cc1ccc(OP(=O)(Nc2ccccn2)Oc2ccc(C)cc2)cc1 | inactive: 2.1% |
| COC(=O)c1cc2c(s1)N=C(c1ccccc1)N(C)P2(=O)N1CCOCC1 (configuration not stated) | inactive: -3.2% |
| CCC(=O)N1C2C3N(C(=O)CC)C1C1N(C(=O)CC)C(C(N1C(=O)CC)N3C(=O)CC)N2C(=O)CC | inactive: -8% |
| O=C(OC1CN2CCC1CC2)c1ccccc1 (configuration not stated) | inactive: 5.3% |
| O=P1(N(CCCl)CCCl)OCCC2CCCCN21 (configuration not stated) | inactive: 7.4% |

| SMILES | activity change (cytotoxicity) |
| --- | --- |
| O=C(NC1CCS(=O)(=O)C1)NP(=S)(Oc1ccccc1)Oc1ccccc1 (configuration not stated) | inactive: -2% |
| CCNC(=S)/N=C(\N)N[N+](=O)[O-] | inactive: -3% |
| Cc1ccc(NP(=O)(Oc2cccc(C)c2)Oc2cccc(C)c2)nc1 | inactive: 9.8% |
| c1ccc(-c2nn[nH]n2)c(-c2nn[nH]n2)c1 | inactive: -4.2% |
| CC(=O)Nc1ccc(Oc2c([N+](=O)[O-])cc([N+](=O)[O-])cc2[N+](=O)[O-])cc1 | inactive: 6.3% |
| CC(=O)Nc1ccc([As](=O)(O)O)c(O)c1 | inactive: 0.7% |
| COC(=O)C1(C)COP(=O)(NCc2ccccc2)OC1 (configuration not stated) | inactive: -4.1% |
| N#C/C(=C\c1ccc(N(CCBr)CCBr)cc1)C(N)=O | inactive: -3.8% |
| CC(=O)c1ccc(N2CC2c2ccncc2)cc1 (configuration not stated) | inactive: 3% |
| C[C@@H]1C=CCP(=O)(Oc2ccccc2)O1 (some centres not stated) | inactive: 0.7% |
| C[C@H]1OP(=O)(Oc2ccccc2)C[C@@H]2O[C@@H]21 (some centres not stated) | inactive: -12.2% |
| Cc1ccccc1CN(C)C(=O)COC(=O)C(O)(c1ccccc1)c1ccccc1 | inactive: 1.6% |
| CCc1cc(O)c([N+](=O)[O-])c(C)c1[N+](=O)[O-] | inactive: -7.2% |
| CC(C)(C)C(=O)NC(Sc1ccccc1)C(Cl)(Cl)Cl (configuration not stated) | inactive: -3.1% |
| CCOc1ccc(C2=NCC(CBr)S2)cc1 (configuration not stated) | inactive: -11.4% |
| O=P1(Nc2nc3ccc(Cl)cc3s2)COc2ccccc2O1 (configuration not stated) | inactive: -5.9% |
| O=[N+]([O-])C1C(O)C(O)C([N+](=O)[O-])C(O)C1O (configuration not stated) | inactive: 0.3% |
| CC(C)CC(=O)NC(Sc1ccc(Cl)cc1)C(Cl)(Cl)Cl (configuration not stated) | inactive: -15% |
| Nc1cc(N)c2nonc2c1[N+](=O)[O-] | inactive: 11.1% |
| O=C(NC(Sc1ccncn1)C(Cl)(Cl)Cl)c1ccccc1 (configuration not stated) | inactive: 2.3% |
| Oc1ccccc1CNc1ccccn1 | inactive: 6.6% |
| Cc1ccc(OP(=O)(Nc2nccs2)Oc2ccc(C)cc2)cc1 | inactive: 7% |
| COc1ccccc1OP(=O)(Nc1ccc(C)cn1)Oc1ccccc1OC | inactive: -0.4% |
| Clc1ccc(Cl)c(NC2=NCC(CBr)S2)c1 (configuration not stated) | inactive: -3.5% |
| CN1CCCC(OC(=O)C(c2ccccc2)c2ccccc2)C1 (configuration not stated) | inactive: -0.4% |
| NC(=O)c1cc([N+](=O)[O-])cc([N+](=O)[O-])c1N | inactive: 14.1% |

| SMILES | activity change (cytotoxicity) |
| --- | --- |
| Cc1ccc(N/C(=N/P(=O)(N2CCOCC2)N2CCOCC2)N2CCOCC2)cc1 | inactive: -16.4% |
| CN(C(=O)Cc1ccc(Cl)c(Cl)c1)[C@H]1CCCC[C@H]1N1CCCC1 | inactive: 2.7% |
| CCN(N=Nc1nonc1N)c1nonc1N | inactive: 2.3% |
| Nc1cccc2ccc([As](=O)(O)O)cc12 | inactive: -4.8% |
| CN(C(=O)Cc1ccc(Cl)c(Cl)c1)[C@H]1CCCC[C@@H]1N1CCCC1 | inactive: -18% |
| Cc1ccc(NP(=O)(Oc2ccccc2F)Oc2ccccc2F)nc1 | inactive: -1.9% |
| CCOP(=O)(Nc1ccccc1)OCC | inactive: 8.4% |
| CCCC1OP(N)(=O)OCC1CC (configuration not stated) | inactive: 0.6% |
| O=C(O)c1ccccc1[As](=O)(O)O | inactive: -0.9% |
| CC(=O)Nc1ccc([As](=O)(O)O)cc1 | inactive: 19.5% |
| CN(C)P(=O)(N(C)C)n1c(Nc2ccccc2)nnc1-c1ccccc1 | inactive: -21.5% |
| O=P(Nc1nc2ccc(Cl)cc2s1)(c1ccccc1)c1ccccc1 | inactive: -7.9% |
| O=[N+]([O-])c1cccc(NC2=NCC(CBr)S2)c1 (configuration not stated) | inactive: -13.2% |
| COC(=O)C1(C)COP(=O)(Nc2ccccc2)OC1 (configuration not stated) | inactive: -12.7% |
| O=C(O)CNc1ccc([As](=O)(O)O)cc1 | inactive: -2.9% |
| CC(C)(C)C(=O)NC(Sc1ccncn1)C(Cl)(Cl)Cl (configuration not stated) | inactive: 4.5% |
| O=[N+]([O-])c1ncn(CCn2ncnc2[N+](=O)[O-])n1 | inactive: 1.9% |
| O=C(Nc1cc([As](=O)(O)O)ccc1O)c1ccccc1 | inactive: 7.2% |
| O=P1(N(CCCl)CCCl)OCCCS1 (configuration not stated) | inactive: 8.8% |
| CN(C)C(=O)OCCc1n(C)cc[n+]1C | inactive: -5.5% |
| CC(C)=N/N=C(\N)N[N+](=O)[O-] | inactive: 7.7% |
| CC(C)c1nc(Nc2ccccc2)n(P(=O)(N(C)C)N(C)C)n1 | inactive: -4.9% |
| c1cc(-c2nn[nH]n2)ccc1-c1nn[nH]n1 | inactive: 15.9% |
| CC1CCN(C(=O)Oc2c(Cl)cc(Cl)c3cccnc23)CC1 | inactive: 3.6% |
| C[N+]1=C2C=CC=CC=C2SC12C([N+](=O)[O-])=CC([N+](=O)[O-])=C[C-]2[N+](=O)[O-] (configuration not stated) | inactive: -6.9% |
| Nc1ccc([As](=O)(O)c2ccc(N)cc2)cc1 | inactive: -8.2% |

| SMILES | activity change (cytotoxicity) |
| --- | --- |
| CCN(/C(=N/P(=O)(N1CCOCC1)N1CCOCC1)N1CCOCC1)c1ccc(OC)cc1 | inactive: -0.8% |
| CC(=O)N1C2C3N(C(C)=O)C1C1N(C(C)=O)C(C(N1C(C)=O)N3C(C)=O)N2C(C)=O | inactive: -14.9% |
| O=[N+]([O-])c1cccc2n[nH]nc12 | inactive: 5.4% |
| O=[N+]([O-])c1cc([N+](=O)[O-])c(CCNc2ccccc2)c([N+](=O)[O-])c1 | inactive: -7.7% |
| CCc1nc2c(n1)c1c(non1O)c1c2no[n+]1[O-] | inactive: -2.9% |
| Cc1ccc(NP(=O)(Oc2ccccc2)Oc2ccccc2)nc1 | inactive: 7.3% |
| COc1ccc(C2=NCC(CBr)S2)cc1 (configuration not stated) | inactive: -7.1% |
| CCC(C)N(CC(C)C)C(=S)SC(NC(C)=O)C(Cl)(Cl)Cl (configuration not stated) | inactive: 5.7% |
| CCOC(=O)c1ccc(NC(=O)C(C)(CCl)SC)cc1 (configuration not stated) | inactive: -7.9% |
| CSc1ccc(Nc2c([N+](=O)[O-])cc([N+](=O)[O-])cc2[N+](=O)[O-])cc1 | inactive: -6.3% |
| O=C(OC1CN2CCC1CC2)c1cccc([N+](=O)[O-])c1 (configuration not stated) | inactive: 9.5% |
| O=C(Nc1ccncc1[N+](=O)[O-])c1ccc([N+](=O)[O-])cc1[N+](=O)[O-] | inactive: -5.9% |
| O=C(COc1ccccc1)OC1CN2CCC1CC2 (configuration not stated) | inactive: 8.7% |
| O=C(O)C(=O)c1ccc(N(CCCl)CCCl)cc1 | inactive: 12.3% |
| COC(=O)C1(C)COP(=O)(N2CCCC2)OC1 (configuration not stated) | inactive: 8.5% |
| COP1(=S)c2c(C)nn(CCC#N)c2N=C(c2ccc(F)cc2)N1C (configuration not stated) | inactive: -1.2% |
| O=[N+]([O-])c1ccc(Nc2ccc(Oc3ccc([N+](=O)[O-])cc3[N+](=O)[O-])cc2)c([N+](=O)[O-])c1 | inactive: -22.3% |
| Cc1cc(SC(NC=O)C(Cl)(Cl)Cl)ncn1 (configuration not stated) | inactive: -3% |
| O=P(Nc1ccccn1)(c1cccc2ccccc12)c1cccc2ccccc12 | inactive: 21.1% |
| CCOC(=O)Nc1cccc([As](=O)(O)O)c1 | inactive: 8.2% |
| Cc1cc(SC(NC(=O)c2ccccc2)C(Cl)(Cl)Cl)nc(C(C)C)n1 (configuration not stated) | inactive: -6.7% |
| CCCCOc1ccc(C(=O)NCC2(N3CCCCC3)CCCCC2)cc1OC | inactive: 12.8% |
| COP(=O)(OC)N1CC1c1ccccc1 (configuration not stated) | inactive: -6.9% |
| CC1CCNP(=O)(N(CCCl)CCCl)O1 (configuration not stated) | inactive: 5.3% |
